Reference: US20260327242A1, “Platform and Scaffold for FAP Targeting Agents” (Erasmus University Medical Center Rotterdam, priority 2022, published 2026)

Molecular target: T1, human FAP (hFAP) (Homo sapiens, UniProt Q12884)
T1 sequence (Q12884 26-760 limits assumed): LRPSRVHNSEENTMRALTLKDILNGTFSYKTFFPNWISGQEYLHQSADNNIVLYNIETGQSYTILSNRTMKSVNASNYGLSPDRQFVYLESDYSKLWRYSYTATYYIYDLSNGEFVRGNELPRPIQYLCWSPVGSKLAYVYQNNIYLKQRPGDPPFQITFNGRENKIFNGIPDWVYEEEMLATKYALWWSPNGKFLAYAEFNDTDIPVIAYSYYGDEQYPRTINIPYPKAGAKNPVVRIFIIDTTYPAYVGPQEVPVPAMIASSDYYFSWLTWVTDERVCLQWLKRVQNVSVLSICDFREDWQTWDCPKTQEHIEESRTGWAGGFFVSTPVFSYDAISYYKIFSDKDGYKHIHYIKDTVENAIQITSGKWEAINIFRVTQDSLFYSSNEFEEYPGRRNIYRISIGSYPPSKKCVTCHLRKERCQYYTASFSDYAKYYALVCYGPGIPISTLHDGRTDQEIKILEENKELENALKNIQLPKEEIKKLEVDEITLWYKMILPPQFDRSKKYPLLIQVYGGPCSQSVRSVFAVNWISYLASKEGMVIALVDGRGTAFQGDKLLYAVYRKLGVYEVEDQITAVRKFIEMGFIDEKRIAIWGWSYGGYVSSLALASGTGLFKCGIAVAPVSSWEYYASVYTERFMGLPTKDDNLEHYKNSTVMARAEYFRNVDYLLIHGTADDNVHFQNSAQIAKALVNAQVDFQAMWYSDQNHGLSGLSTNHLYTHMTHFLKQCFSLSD
Assay: In vitro inhibition assay on human FAP (Z-GP-AMC substrate)
Format: biochemical
Details: 20 μM Z-GP-AMC, 20 nM FAP, pH 7.4, room temperature
Description: Enzymatic activity of human FAP (hFAP) and mouse FAP (mFAP) on the Z-GP-AMC substrate was measured at room temperature on a Hidex microplate reader by monitoring the fluorescence at an excitation wavelength of 360 nm and an emission wavelength of 465 nm. The reaction mixture contained 20 μM substrate, 20 nM FAP, assay buffer (50 mM Tris, 100 mM NaCl, 1 mM EDTA, pH 7.4) and tested compound (serial dilution from 10-6 to 10^−12) in a total volume of 50 μL.

IC50: 2.1 ± 0.3 nM
SMILES: N#C[C@@H]1CC(F)(F)CN1C(=O)CNC(=O)c1ccnc2c(OCCCNC(=O)CC(O)CNC(=O)CC(O)CNC(=S)Nc3ccc4c(c3)C(=O)OC43c4ccc(O)cc4Oc4cc(O)ccc43)cccc12 (stereo partly drawn) [eFAP-23, N-(2-((S)-2-cyano-4,4-difluoropyrrolidin-1-yl)-2-oxoethyl)-8-(3-(4-(4-(3-(3′,6′-dihydroxy-3-oxo-3H-spiro[isobenzofuran-1,9′-xanthen]-5-yl)thioureido)-3-hydroxybutanamido)-3-hydroxybutanamido)propoxy)quinoline-4-carboxamide]
